Test results reported in BindingDB's records for doi:10.1021/acs.jmedchem.0c00807 (University of Oxford, 2020).

Assay: Modulation of human utrophinA expressed in mouse H2K cells assessed as upregulation of utrophin production after 24 hrs by luciferase reporter gene assay

CCP(=O)(OC)c1ccc2oc(-c3ccc(F)cc3)nc2c1 (stereo unspecified)
EC50: 711 nM
